In ChEMBL document CHEMBL1139960 (Bioorg Med Chem Lett, 2007) one finds IC50 data, which are given here for 1 molecule.

SMILES strings stand for the structures.

This assay can be described thus: Antagonist activity at GABAC rho1 receptor expressed in Xenopus laevis oocytes assessed as reduction of GABA-induced chloride ion currents. As to conditions: oocyte.

Broadly, the IC50 is the point on the concentration scale where inhibition reaches its midpoint. Turning to `CP(=O)(O)OCCN`, the concentration for half-maximal inhibition (IC50) turned out to be 11.1 µM.
